SMILES strings stand for the structures. Values joined by “and” are separate entries in the source; they are usually repeats but may differ in a detail not shown here. Equal entries are not always repeated. This is a selection: effects in other tests are not listed, and their absence says nothing.

Amino acid sequences for entries named in this document (tags omitted).
UniProt P41144, whole entry: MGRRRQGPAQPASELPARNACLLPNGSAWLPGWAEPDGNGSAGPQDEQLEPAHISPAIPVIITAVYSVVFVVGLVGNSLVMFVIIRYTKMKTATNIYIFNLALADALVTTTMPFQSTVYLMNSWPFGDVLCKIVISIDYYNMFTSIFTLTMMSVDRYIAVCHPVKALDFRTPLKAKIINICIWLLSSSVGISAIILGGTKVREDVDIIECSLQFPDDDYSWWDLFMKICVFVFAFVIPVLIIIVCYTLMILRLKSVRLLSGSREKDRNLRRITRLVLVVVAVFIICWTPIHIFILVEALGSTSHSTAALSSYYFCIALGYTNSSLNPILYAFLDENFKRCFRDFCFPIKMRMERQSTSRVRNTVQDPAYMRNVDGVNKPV
UniProt P97266, whole entry: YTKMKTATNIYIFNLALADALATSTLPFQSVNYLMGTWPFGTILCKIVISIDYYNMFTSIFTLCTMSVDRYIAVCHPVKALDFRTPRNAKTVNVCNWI

This passage reports Ki and MPE50 results from ChEMBL document CHEMBL1125721, “Highly selective kappa opioid analgesics. 4. Synthesis of some conformationally restricted naphthalene derivatives with high receptor affinity and selectivity” (1991).

Assay [1] addresses Kappa-type opioid receptor (Cavia porcellus, UniProt P41144). As to the kind of experiment: Opioid receptor kappa affinity, determined with [3H]etorphine in the presence of excess unlabeled [D-Ala2-MePhe4-Glyol5]-enkephalin.
The target in assay [2] is T1, Mu-type opioid receptor (Cavia porcellus, UniProt P97266). As to the kind of experiment: Compound was evaluated for the Opioid receptor mu affinity determined with [3H][D-Ala2-MePhe4-Gly-ol5]-enkephalin (DAGOL) in the presence of excess unlabeled DAGOL to suppress mu binding.
Assay [3] addresses T1, Mu-type opioid receptor. As to the kind of experiment: Compound was evaluated for the opioid receptor mu affinity determined with [3H][D-Ala2-MePhe4-Gly-ol5]-enkephalin (DAGOL) in the presence of excess unlabeled DAGOL to suppress mu binding.
Assay [4] relates to Rattus norvegicus. As to the kind of experiment: Dose required to produce 50% of the maximum possible analgesic effect evaluated through rat paw pressure assay with the compound being administered through intravenous route.

Broadly, the Ki is a dissociation constant, usually derived from enzyme kinetics or from competition with a known ligand. As for `CC(C(=O)N(C)[C@H]1CCCC[C@@H]1N1CCCC1)c1cccc2sccc12` (some centres undefined), the Ki in assay [1] is 172 nM and 361 nM and 176 nM; in assay [2], 2460 nM; in assay [3], over 1000 nM. Take `CN(C(=O)C1CCc2c(Br)sc3cccc1c23)[C@H]1CCC2(CCCO2)C[C@@H]1N1CCCC1` (some centres undefined): the Ki in assay [1] is 272 nM and 222 nM. `CC1c2cccc3cccc(c23)C1C(=O)N(C)[C@H]1CCC2(CCCO2)C[C@@H]1N1CCCC1.Cl` (some centres undefined): the MPE50 in assay [4] was found to be 0.014 mg/kg. Turning to `CC1c2cccc3cccc(c23)C1C(=O)N(C)[C@H]1CCC2(CCCO2)C[C@@H]1N1CCCC1` (some centres undefined), the Ki turned out to be 0.37 nM in assay [1] and 244 nM in assay [3]. As for `CN(C(=O)C1CCc2csc3cccc1c23)[C@H]1CCC2(CCCO2)C[C@@H]1N1CCCC1` (some centres undefined), the Ki in assay [1] is 11.1 nM and 4.65 nM; in assay [3], 62 nM and 507 nM.
